# Reference: patent US6713266B1 (Isodiagnostika Inc., priority 1998, dated 2004)
# Key:
# Format in all cases: binding
# [1] = system: Mouse polyclonal sera (CSA-DVS-KLH immunogen); test: Inhibition ELISA, CSA-DVS-HSA coated plate, mouse polyclonal sera; settings: Table 3, inhibition ELISA to the CSA-DVS-HSA conjugate
# Method: (§1) Inhibition ELISA Protocol:
# (§2) 1. Use Falcon Pro-bind immunoplates.
# (§3) 2. Dilute coating antigen to 1 μg/mL in carbonate-bicarbonate buffer. Add 100 μL per well and incubate overnight at 4° C.
# (§4) 3. On the same day prepare inhibiting antigen tubes. Aliquot antibodies into glass test tubes. Prepare appropriate antigen concentration in ethanol and add to aliquoted antibody at 10 μL ethanol solution/250 μL antibody. Vortex tubes and incubate overnight at 4° C.
# (§5) 4. Shake out wells and wash 3× with 200 μL PBS/0.05% TWEEN™ (polyoxyethylene-sorbitol) (v/v) per well.
# (§6) 5. Add 200 μL blocking buffer per well (PBS/2% BSA (w/v)). Incubate 60 min at room temperature.
# (§7) 7. Transfer contents of inhibition tubes to antigen-coated plate, 100 μL per well. Incubate 60 min at 37° C.
# (§8) 9. […] Add 100 μL per well and incubate at 37° C. for 60 min.
# (§9) 11. […] Add 100 μL per well and incubate in the dark at room temperature. Absorbance can be read at 405 nm at approximately 15-min intervals.
# [2] = system: Mouse polyclonal sera (CSA-DVS-KLH immunogen); test: Antigen panel (direct) ELISA, mouse polyclonal sera; settings: for Percent reactivity: OD to test antigen / OD to CSA-DVS-HSA × 100; for OD: coated test antigen
# [3] = system: Mouse polyclonal sera (AM1-DVS-KLH immunogens); test: as above; settings: for Percent reactivity: OD to test antigen / OD to CSA-DVS-HSA × 100; for OD: coated test antigen
# [4] = system: Mouse polyclonal sera (AM1-DVS-KLH immunogen); test: Inhibition ELISA to the CSA-DVS-HSA conjugate, mouse polyclonal sera
# Method: as §1, §2, §3, §4, §5, §6, §7, §8, §9
# [5] = system: Mouse polyclonal sera (AM19-1-DVS (1) - KLH immunogen); test: Antigen panel (direct) ELISA, mouse polyclonal sera; settings: for Percent reactivity: OD to test antigen/OD to AM19-1-DVS (1) × 100; for OD: coated test antigen
# [6] = system: Mouse polyclonal sera (AM19-1-DVS (2) - KLH immunogen); test: as above; settings: for Percent reactivity: OD to test antigen/OD to AM19-1-DVS (2) × 100; for OD: coated test antigen
# [7] = system: Mouse polyclonal sera (AM19-1-DVS (2) - KLH immunogen); test: Inhibition ELISA, AM19-1-DVS (2) HSA coated plate, mouse polyclonal sera
# Method: as §1, §2, §3, §4, §5, §6, §7, §8, §9
# [8] = system: Rabbit polyclonal sera (AM19-1-DVS-KLH (1) immunogen); test: Inhibition ELISA, AM19-1-DVS (1) HSA coated plate, rabbit polyclonal sera
# Method: as §1, §2, §3, §4, §5, §6, §7, §8, §9
# The AM19-1-DVS (1) conjugate was also used to immunize rabbits.
# [9] = system: Mouse polyclonal sera (AM19-9-DVS-KLH immunogens); test: Antigen panel (direct) ELISA, mouse polyclonal sera; settings: for Percent reactivity: OD to test antigen / OD to AM19-9-DVS-HSA × 100; for OD: coated test antigen
# [10] = system: Mouse polyclonal sera (AM9-1-DVS-KLH immunogen); test: as above; settings: for Percent reactivity: OD to test antigen / OD to AM9-1-DVS-HSA × 100; for OD: coated test antigen
# [11] = system: Mouse polyclonal sera (AM9-9-DVS-KLH immunogen); test: Inhibition ELISA, AM19-9-DVS-HSA coated plate, mouse polyclonal sera
# Method: as §1, §2, §3, §4, §5, §6, §7, §8, §9
# [12] = system: Mouse monoclonal antibody CSA-1H6; test: Antigen panel (direct) ELISA, MoAb tissue culture supernatant
# [13] = system: Mouse monoclonal antibody CSA-2G9; test: as above
substance,measurement,setting,value
"HSA: human serum albumin, protein carrier",Percent Inhibition,[1],24.9%
same,Percent reactivity,[2]; Mouse 1,0%
same,OD,[2]; Mouse 1,0
same,Percent reactivity,[2]; Mouse 2,0%
same,OD,[2]; Mouse 2,0
same,Percent reactivity,[3]; Mouse 1,0%
same,OD,[3]; Mouse 1,0
same,Percent reactivity,[3]; Mouse 2,0%
same,OD,[3]; Mouse 2,0
same,Percent Inhibition,[4]; Mouse 1,1.8%
same,Percent Inhibition,[4]; Mouse 2,14.9%
same,Percent reactivity,[5]; Mouse 1,0%
same,OD,[5]; Mouse 1,0
same,Percent reactivity,[5]; Mouse 2,0%
same,OD,[5]; Mouse 2,0
same,Percent reactivity,[6]; Mouse 3,0%
same,OD,[6]; Mouse 3,0
same,Percent reactivity,[6]; Mouse 4,0%
same,OD,[6]; Mouse 4,0
same,Percent Inhibition,[7]; Mouse 3,0%
same,Percent Inhibition,[7]; Mouse 4,0%
same,Percent Inhibition,[8],0%
same,Percent reactivity,[9]; Mouse 5,0%
same,OD,[9]; Mouse 5,0.012
same,Percent reactivity,[9]; Mouse 6,0%
same,OD,[9]; Mouse 6,0.007
same,Percent reactivity,[10]; Mouse 1,0%
same,OD,[10]; Mouse 1,0
same,Percent reactivity,[10]; Mouse 2,0%
same,OD,[10]; Mouse 2,0
same,Percent Inhibition,[11]; Mouse 1,24.6%
same,Percent Inhibition,[11]; Mouse 2,26.8%
same,Percent reactivity,"[12]; CSA-1H6, OD to test antigen / OD to CSA-DVS-HSA × 100",0%
same,OD,"[12]; CSA-1H6 TCS, coated test antigen",0.006
same,Percent reactivity,"[13]; CSA-2G9, OD to test antigen / OD to CSA-DVS-HSA × 100",0%
same,OD,"[13]; CSA-2G9 TCS, coated test antigen",0
